Values of other authors as cited in US20180016259A1, “QUINAZOLINE INHIBITORS OF ACTIVATING MUTANT FORMS OF EPIDERMAL GROWTH FACTOR RECEPTOR” (AstraZeneca AB, priority 2013, published 2018).

Conditions: literature reports; cited from earlier work

Compound: C#Cc1cccc(Nc2ncnc3cc(OCCOC)c(OCCOC)cc23)c1 [erlotinib]
- adverse effects, such as skin rash and diarrhoea, share of NSCLC patients treated: > 60%
